Molecular target: nonselective muscarinic receptor
Experiment: Binding at the nonselective muscarinic receptor
Conditions: rat cerebral cortex
Procedure: IC50 values (concentration required to inhibit 50% specific binding) were then determined by nonlinear regression analysis of the curves and tabulated below.

CC(C)CC(N(C)C)C1(c2ccc(Cl)cc2)CCC1 (racemic) [(R/S)-Sibutramine, [N-1-[1-(4-chlorophenyl)cyclobutyl]-3-methylbutyl]-N,N-dimethylamine, reference compound]
IC50: 2650 nM

— patent publication US6974837B2, “Compositions comprising sibutramine metabolites in combination with phosphodiesterase inhibitors” (Sepracor Inc., priority 1999, dated 2005)
